From patent US20120157500A1, “JAK INHIBITION BLOCKS RNA INTERFERENCE ASSOCIATED TOXICITIES” (priority 2009, published 2012)

Details: in vivo

Question: With C[C@@H]1CCN(C(=O)CC#N)C[C@@H]1N(C)c1ncnc2[nH]ccc12 [CP-690550] as the molecule, how does the “adverse effects of treatment alone” value read?
Answer: no adverse effects
